From ChEMBL document CHEMBL4706653, “Ultra-short lipopeptides against gram-positive bacteria while alleviating antimicrobial resistance” (Eur J Med Chem, 2021)

How the values were obtained:
Type in all cases: functional
Staphylococcus aureus [1] = assay: Antimicrobial activity against Staphylococcus aureus ATCC 25923 after 18 hrs by broth microdilution method
[2] = test system: Staphylococcus epidermidis; assay: Antimicrobial activity against Staphylococcus epidermidis ATCC 12228 after 18 hrs by broth microdilution method
Staphylococcus aureus [3] = assay: Antimicrobial activity against Staphylococcus aureus ATCC 25923 after 18 hrs in presence of 2.5% serum by broth microdilution method
Staphylococcus aureus [4] = assay: Antimicrobial activity against Staphylococcus aureus ATCC 25923 after 18 hrs in presence of MgCl2 by broth microdilution method
Staphylococcus aureus [5] = assay: Antimicrobial activity against Staphylococcus aureus ATCC 25923 after 18 hrs in presence of NaCl by broth microdilution method
Staphylococcus aureus [6] = assay: Antimicrobial activity against Staphylococcus aureus ATCC 25923 after 18 hrs in presence of ZnCl2 by broth microdilution method
Staphylococcus aureus [7] = assay: Antimicrobial activity against Staphylococcus aureus ATCC 25923 after 18 hrs in presence of FeCl3 by broth microdilution method
Staphylococcus aureus [8] = assay: Antimicrobial activity against Staphylococcus aureus ATCC 29213 after 18 hrs by broth microdilution method
Staphylococcus aureus [9] = assay: Antimicrobial activity against methicillin-resistant Staphylococcus aureus 113 after 18 hrs by broth microdilution method
Staphylococcus aureus [10] = assay: Antimicrobial activity against Staphylococcus aureus ATCC 25923 after 18 hrs in presence of CaCl2 by broth microdilution method
Staphylococcus aureus [11] = assay: Antimicrobial activity against Staphylococcus aureus ATCC 25923 after 18 hrs in presence of 5% serum by broth microdilution method
Bacillus subtilis = assay: Antimicrobial activity against Bacillus subtilis ATCC 23857 after 18 hrs by broth microdilution method
Staphylococcus aureus [12] = assay: Antimicrobial activity against Staphylococcus aureus ATCC 25923 after 18 hrs in presence of KCl by broth microdilution method
Staphylococcus aureus [13] = assay: Antimicrobial activity against Staphylococcus aureus ATCC 25923 after 18 hrs in presence of NH4Cl by broth microdilution method
Staphylococcus aureus [14] = assay: Antimicrobial activity against Staphylococcus aureus ATCC 25923 after 18 hrs in presence of 10% serum by broth microdilution method
Staphylococcus aureus [15] = assay: Antimicrobial activity against methicillin-resistant Staphylococcus aureus 75 after 18 hrs by broth microdilution method

Structure (SMILES): CC[C@H](C)[C@H](NC(=O)CN)C(=O)NCC(=O)N[C@@H](C)C(=O)N[C@H](C(=O)N[C@@H](CC(C)C)C(=O)N[C@@H](CCCCN)C(=O)N[C@H](C(=O)N[C@@H](CC(C)C)C(=O)N[C@H](C(=O)N[C@H](C(=O)NCC(=O)N[C@@H](CC(C)C)C(=O)N1CCC[C@H]1C(=O)N[C@@H](C)C(=O)N[C@@H](CC(C)C)C(=O)N[C@H](C(=O)N[C@@H](CO)C(=O)N[C@@H](Cc1c[nH]c2ccccc12)C(=O)N[C@H](C(=O)N[C@@H](CCCCN)C(=O)N[C@@H](CCCNC(=N)N)C(=O)N[C@@H](CCCCN)C(=O)N[C@@H](CCCNC(=N)N)C(=O)N[C@@H](CCC(N)=O)C(=O)N[C@@H](CCC(N)=O)C(N)=O)[C@@H](C)CC)[C@@H](C)CC)[C@@H](C)O)[C@@H](C)O)C(C)C)C(C)C [MELITTIN]
- MIC (Staphylococcus aureus [1]): 2 µM (≈ 5.69 µg/mL)
- MIC [2]: 4 µM (≈ 11.4 µg/mL)
- MIC (Staphylococcus aureus [3]): 4 µM
- MIC (Staphylococcus aureus [4]): 4 µM
- MIC (Staphylococcus aureus [5]): 8 µM
- MIC (Staphylococcus aureus [6]): 8 µM
- MIC (Staphylococcus aureus [7]): 8 µM
- MIC (Staphylococcus aureus [8]): 4 µM (≈ 11.4 µg/mL)
- MIC (Staphylococcus aureus [9]): 2 µM (≈ 5.69 µg/mL)
- MIC (Staphylococcus aureus [10]): 8 µM
- MIC (Staphylococcus aureus [11]): 8 µM
- MIC (Bacillus subtilis): 1 µM (≈ 2.85 µg/mL)
- MIC (Staphylococcus aureus [12]): 4 µM
- MIC (Staphylococcus aureus [13]): 4 µM
- MIC (Staphylococcus aureus [14]): 8 µM
- MIC (Staphylococcus aureus [15]): 2 µM (≈ 5.69 µg/mL)

In brackets after ≈: the same amount, converted by molar mass.
